Measured values as given in article PMC2364737, “Phase I and pharmacokinetic (PK) study of MAG-CPT (PNU 166148): a polymeric derivative of camptothecin (CPT)” (British Journal of Cancer, 2004).
Like-named read-outs stand apart in the source and are kept apart here.

Key:
[1] = ref Sarapa et al, 2003, cited from earlier work
[2] = tested on: patients; conditions: first 3 days of a 28-day cycle (390 mg m^−2 per 4 week cycle); ref Schoemaker et al, 2002; cited from earlier work
[3] = tested on: patients with advanced solid malignancies; assay: Phase I dose escalation study: safety, dose-limiting toxicity and MTD
Procedure: This was an open-label nonrandomised dose escalation study, conducted in sequential cohorts of patients from two institutions, Aberdeen Royal Infirmary, Aberdeen, and the Beatson Oncology Centre, Glasgow. It was performed under the auspices of the Cancer Research Campaign, London, with sponsorship by Pharmacia and Upjohn, Milan.
All patients had histologically or cytologically proven advanced solid malignancy that was refractory to conventional therapy. […] All patients gave written informed consent according to local Ethics Committee guidelines.
All doses of the investigational agent are expressed as mg of CPT equivalent. The drug was stored at room temperature. The vials were reconstituted with 10 ml normal saline and the dose to be administered was made up in 100 ml saline in a PVC infusion bag.
Thereafter, dose escalation was to continue according to a modified Fibonacci series. The dose escalation scheme could, however, be modified if considered appropriate based on acquired clinical and pharmacokinetic data. The MTD was defined as the highest dose at which at least three of six patients had dose-limiting toxicity (DLT).
Patients were to be retreated at 28-day intervals for up to six cycles. […] Treatment could be delayed for up to 2 weeks to allow resolution of toxicity.
During the course of the study patients were reviewed in the clinic every week with toxicity assessment, physical examination, FBC, and serum chemistry. Tumour assessment by imaging was repeated every three cycles. Chest X-ray and ECG were repeated at the end of study.

[4] = tested on: animals; conditions: toxicological studies in animals; cited from earlier work
[5] = xenograft-bearing mice, three days after a single i.v. treatment; ref Conover et al, 1998; Caiolfa et al, 2000; cited from earlier work
[6] = for AUC0– / CL (systemic clearance) / Vss (volume of distribution at steady state) / t1/2Z (apparent terminal half-life) / AUC0–∞ / Cmax (maximum concentration) / Tmax (time to maximum concentration): plasma
[7] = 0–8 h, cycle 1, dose 30 mg m^−2, mean (s.d.)
[8] = 8–24 h, cycle 1, dose 30 mg m^−2, mean (s.d.)
[9] = carrier-bound CPT, cycle 1, dose 30 mg m^−2, mean (s.d.)
[10] = carrier-bound CPT, cycle 1, dose 60 mg m^−2, mean (s.d.)
[11] = carrier-bound CPT, cycle 1, dose 120 mg m^−2, mean (s.d.)
[12] = carrier-bound CPT, cycle 1, dose 170 mg m^−2, mean (s.d.)
[13] = carrier-bound CPT, cycle 1, dose 200 mg m^−2, mean (s.d.)
[14] = carrier-bound CPT, cycle 1, dose 240 mg m^−2, mean, n=2
[15] = released-CPT, cycle 1, dose 30 mg m^−2, mean (s.d.)
[16] = released-CPT, cycle 1, dose 60 mg m^−2, mean (s.d.)
[17] = released-CPT, cycle 1, dose 120 mg m^−2, mean (s.d.)
[18] = released-CPT, cycle 1, dose 170 mg m^−2, mean (s.d.)
[19] = released-CPT, cycle 1, dose 200 mg m^−2, mean (s.d.)
[20] = released-CPT, cycle 1, dose 240 mg m^−2, mean (s.d.)
[21] = released-CPT, cycle 1, dose 240 mg m^−2, mean, n=2

Substance: copolymer of N-(hydroxypropyl) methacrylamide, (20-O-(N-methacryloyl-glycyl-aminohexanoyl-glycyl)) camptothecin and N-(2-hydroxypropyl) methacryloyl glycinamide [MAG-CPT]
- retention of the cytotoxic within the tumour ([1]; single dose 60 mg m^−2, up to 7 days after injection): no evidence of preferential retention
- concentrations of released CPT in tumour versus normal colon ([1]; single dose 60 mg m^−2 up to 7 days prior to surgery, colorectal cancer): consistently lower in tumour than in normal colon
- dose at which bladder toxicity (dysuria and haematuria) was dose limiting [2]: 130 mg m^−2 day
- drug-related toxicity ([3]; 170 mg m^−2, three patients): No significant drug-related toxicity
- patients with dose-limiting haematological and nonhaematological toxicities ([3]; 240 mg m^−2): all three patients
- toxicity following cycle 1, second patient ([3]; 240 mg m^−2, malignant mesothelioma): grade 3 diarrhoea and grade 3 myelosuppression
- toxicity following cycle 1, first patient ([3]; 240 mg m^−2, metastatic colorectal carcinoma): grade 4 myelosuppression and grade 2 diarrhoea
- toxicity following cycle 1, third patient ([3]; 240 mg m^−2, squamous carcinoma of unknown primary): grade 3 diarrhoea with no myelosuppression
- drug-related toxicities ([3]; 30, 60, or 120 mg m^−2 dose levels): No significant drug-related toxicities
- dose-limiting toxicities ([3]; 30-min infusion once every 4 weeks): myelosuppression, neutropaenic sepsis, and diarrhoea
- maximum tolerated dose (MTD) ([3]; 30-min infusion once every 4 weeks, dose as mg equivalent camptothecin): 240 mg m^−2
- death on study ([3]; after cycle 1 at the maximum dose (240 mg m^−2)): One patient died
- haematological toxicity ([3]; intermediate dose levels 170 and 200 mg m^−2): No significant haematological toxicity
- Ae (amount of total CPT excreted in urine) [7]: 31.1 (5.2) mg
- fe (total CPT excreted in urine as percentage of dose) [7]: 58.4 (5.6) % dose
- Ae (amount of total CPT excreted in urine) (0–8 h, cycle 1, dose 60 mg m^−2, mean (s.d.)): 42.6 (13.2) mg
- Ae (amount of total CPT excreted in urine) (0–8 h, cycle 1, dose 120 mg m^−2, mean (s.d.)): 133.0 (52.4) mg
- Ae (amount of total CPT excreted in urine) (0–8 h, cycle 1, dose 170 mg m^−2, mean (s.d.)): 125.1 (49.2) mg
- Ae (amount of total CPT excreted in urine) (0–8 h, cycle 1, dose 200 mg m^−2, mean (s.d.)): 322.8 (178.7) mg
- Ae (amount of total CPT excreted in urine) (0–8 h, cycle 1, dose 240 mg m^−2, mean (s.d.)): 777.8 (659.6) mg
- Ae (amount of total CPT excreted in urine) (0–24 h, cycle 1, dose 30 mg m^−2, mean (s.d.)): 41.3 (7.0) mg
- Ae (amount of total CPT excreted in urine) (0–24 h, cycle 1, dose 60 mg m^−2, mean (s.d.)): 61.6 (9.2) mg
- Ae (amount of total CPT excreted in urine) (0–24 h, cycle 1, dose 120 mg m^−2, mean (s.d.)): 169.5 (64.1) mg
- Ae (amount of total CPT excreted in urine) (0–24 h, cycle 1, dose 170 mg m^−2, mean (s.d.)): 171.2 (47.3) mg
- mean urinary concentration of total CPT (200 mg m^−2, week 2 of first cycle): 2.8 µg/mL
- mean urinary concentration of total CPT (200 mg m^−2, week 4 of first cycle): 0.5 µg/mL
- Ae (amount of total CPT excreted in urine) [8]: 10.2 (1.8) mg
- fe (total CPT excreted in urine as percentage of dose) [8]: 19.1 (1.7) % dose
- Ae (amount of total CPT excreted in urine) (8–24 h, cycle 1, dose 60 mg m^−2, mean (s.d.)): 18.9 (4.6) mg
- Ae (amount of total CPT excreted in urine) (8–24 h, cycle 1, dose 120 mg m^−2, mean (s.d.)): 36.5 (21.5) mg
- Ae (amount of total CPT excreted in urine) (8–24 h, cycle 1, dose 170 mg m^−2, mean (s.d.)): 46.1 (18.5) mg
- Ae (amount of total CPT excreted in urine) (8–24 h, cycle 1, dose 200 mg m^−2, mean (s.d.)): 97.8 (51.2) mg
- Ae (amount of total CPT excreted in urine) (8–24 h, cycle 1, dose 240 mg m^−2, mean (s.d.)): 104.6 (92.1) mg
- drug in urine 28 days postdosing (all dose levels): detected at all dose levels in the urine of most patients
- administered dose of total CPT recovered in the urine during the first 24 h (all doses tested, on average): at least 50%
- major toxicities in animals [4]: myelosuppression, diarrhoea, and transient impairment of renal and hepatic function
- tumour concentrations of CPT versus plasma levels [5]: exceeding plasma levels
- dose proportionality of carrier-bound CPT and released-CPT AUC0−∞ ([6]; 30–240 mg m^−2): no substantial deviation from dose proportionality
- AUC0– [6, 9]: 976.2 (163.7) μg h ml^−1
- CL (systemic clearance) [6, 9]: 31.4 (5.8) ml h^−1 m^−2
- Vss (volume of distribution at steady state) [6, 9]: 7841 (1903) ml m^−2
- t1/2Z (apparent terminal half-life) [6, 9]: 216 (22) h
- AUC0– [6, 10]: 1760.7 (533.6) μg h ml^−1
- CL (systemic clearance) [6, 10]: 36.2 (10.6) ml h^−1 m^−2
- Vss (volume of distribution at steady state) [6, 10]: 5297 (529) ml m^−2
- t1/2Z (apparent terminal half-life) [6, 10]: 132 (49) h
- AUC0– [6, 11]: 5747.6 (596.9) μg h ml^−1
- CL (systemic clearance) [6, 11]: 21.0 (2.1) ml h^−1 m^−2
- Vss (volume of distribution at steady state) [6, 11]: 5710 (722) ml m^−2
- t1/2Z (apparent terminal half-life) [6, 11]: 219 (16) h
- AUC0– [6, 12]: 6559.1 (497.9) μg h ml^−1
- CL (systemic clearance) [6, 12]: 26.0 (1.9) ml h^−1 m^−2
- Vss (volume of distribution at steady state) [6, 12]: 6289 (524) ml m^−2
- t1/2Z (apparent terminal half-life) [6, 12]: 188 (29) h
- AUC0– [6, 13]: 9305.3 (2170.5) μg h ml^−1
- CL (systemic clearance) [6, 13]: 22.3 (4.7) ml h^−1 m^−2
- Vss (volume of distribution at steady state) [6, 13]: 6481 (1883) ml m^−2
- t1/2Z (apparent terminal half-life) [6, 13]: 237 (37) h
- CL (systemic clearance) [6, 14]: 23.0 (n=2) ml h^−1 m^−2
- Vss (volume of distribution at steady state) [6, 14]: 4326 (n=2) ml m^−2
- t1/2Z (apparent terminal half-life) [6, 14]: 155 (n=2) h
- mean plasma level of released-CPT ([6]; cycle 2, 200 mg m^−2, day 8): 113 ng/mL
- mean plasma level of released-CPT ([6]; cycle 2, 200 mg m^−2, day 29): 25 ng/mL
- plasma levels of released-CPT as % of carrier-bound drug concentrations (median) ([6]; in vivo): 0.28%
- plasma levels of released-CPT as % of carrier-bound drug concentrations (range) ([6]; in vivo): 0.01–4.9%
- time after treatment that carrier-bound and released-CPT were detectable in plasma ([6]; in vivo): up to 4 weeks
- drug accumulation ([6]; patients who received multiple cycles): no evidence of drug accumulation
- dose dependence of plasma pharmacokinetic parameters of carrier-bound CPT ([6]; range of tested dose levels): dose independent
- AUC0–∞ [6, 15]: 10.0 (4.5) μg h ml^−1
- Cmax (maximum concentration) [6, 15]: 0.060 (0.039) μg ml^−1
- Tmax (time to maximum concentration) [6, 15]: 25 (0) h
- t1/2Z (apparent terminal half-life) [6, 15]: 168 (107) h
- AUC0–∞ [6, 16]: 24.3 (12.0) μg h ml^−1
- Cmax (maximum concentration) [6, 16]: 0.141 (0.087) μg ml^−1
- Tmax (time to maximum concentration) [6, 16]: 25 (0) h
- t1/2Z (apparent terminal half-life) [6, 16]: 185 (97) h
- AUC0–∞ [6, 17]: 37.8 (20.0) μg h ml^−1
- Cmax (maximum concentration) [6, 17]: 0.196 (0.079) μg ml^−1
- Tmax (time to maximum concentration) [6, 17]: 15 (9) h
- t1/2Z (apparent terminal half-life) [6, 17]: 216 (58) h
- AUC0–∞ [6, 18]: 31.5 (10.8) μg h ml^−1
- Cmax (maximum concentration) [6, 18]: 0.127 (0.023) μg ml^−1
- Tmax (time to maximum concentration) [6, 18]: 25 (0) h
- t1/2Z (apparent terminal half-life) [6, 18]: 224 (23) h
- AUC0–∞ [6, 19]: 43.8 (25.5) μg h ml^−1
- Cmax (maximum concentration) [6, 19]: 0.230 (0.133) μg ml^−1
- Tmax (time to maximum concentration) [6, 19]: 25 (11) h
- t1/2Z (apparent terminal half-life) [6, 19]: 209 (64) h
- Cmax (maximum concentration) [6, 20]: 0.589 (0.105) μg ml^−1
- Tmax (time to maximum concentration) [6, 20]: 28 (19) h
- AUC0–∞ [6, 21]: 73.3 (n=2) μg h ml^−1
- t1/2Z (apparent terminal half-life) [6, 21]: 228 (n=2) h
